The values below are quoted from earlier work in patent publication CN105130966A, “炔基化合物及其使用方法和用途” (Add And Open Up Scientific Co, priority 2014, dated 2015).

Chains of the proteins cited; added tags and fusions are not shown. Lines headed by an entry give the natural chain unless they say otherwise; changes in a name come on top.
UniProt O00329, whole entry, species assumed: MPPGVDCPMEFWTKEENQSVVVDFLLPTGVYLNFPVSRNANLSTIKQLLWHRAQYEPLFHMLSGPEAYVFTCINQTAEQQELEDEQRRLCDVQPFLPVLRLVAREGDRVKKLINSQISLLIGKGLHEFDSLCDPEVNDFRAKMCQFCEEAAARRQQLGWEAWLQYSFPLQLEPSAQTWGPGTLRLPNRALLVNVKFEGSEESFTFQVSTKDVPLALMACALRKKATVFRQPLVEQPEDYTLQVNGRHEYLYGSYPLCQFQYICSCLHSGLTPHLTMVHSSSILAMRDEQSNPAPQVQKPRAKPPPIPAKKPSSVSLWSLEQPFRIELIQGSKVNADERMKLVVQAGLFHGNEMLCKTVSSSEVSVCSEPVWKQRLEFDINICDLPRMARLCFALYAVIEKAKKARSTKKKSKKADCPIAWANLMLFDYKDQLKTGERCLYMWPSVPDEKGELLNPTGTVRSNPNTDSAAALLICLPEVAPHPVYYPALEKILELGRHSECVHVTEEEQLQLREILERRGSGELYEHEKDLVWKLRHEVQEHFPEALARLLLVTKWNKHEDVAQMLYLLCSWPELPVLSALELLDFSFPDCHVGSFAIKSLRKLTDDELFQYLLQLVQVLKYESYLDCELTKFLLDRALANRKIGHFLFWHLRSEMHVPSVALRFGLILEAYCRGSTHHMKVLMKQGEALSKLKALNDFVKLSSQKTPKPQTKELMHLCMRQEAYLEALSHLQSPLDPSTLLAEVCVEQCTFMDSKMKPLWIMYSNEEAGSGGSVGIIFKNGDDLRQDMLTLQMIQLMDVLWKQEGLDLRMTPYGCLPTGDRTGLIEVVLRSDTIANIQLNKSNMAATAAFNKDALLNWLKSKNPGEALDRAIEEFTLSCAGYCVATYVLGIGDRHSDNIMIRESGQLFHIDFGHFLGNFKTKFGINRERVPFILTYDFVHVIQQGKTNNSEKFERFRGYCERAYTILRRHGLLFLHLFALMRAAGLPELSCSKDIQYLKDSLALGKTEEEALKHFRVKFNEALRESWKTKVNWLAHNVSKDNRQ

The data set concerns the target PI3Kδ (Homo sapiens, UniProt O00329). The note with it: Cell, 2006, 125, 733-747.

As to `Cc1ccccc1-n1c(Cn2cnc3c(N)ncnc32)nc2cccc(C)c2c1=O` [IC87114], the “inhibition of PI3Kδ” value is “高纳摩尔范围(三位数)”.
